This experiment deals with Der p 1 (Dermatophagoides pteronyssinus (European house dust mite), UniProt P08176). As to the kind of experiment: Der p 1 enzyme activity assay (FRET fluorogenic substrate). Format: biochemical. Here is the method:
The fluorogenic substrate used for measuring Der p 1 proteolytic activity was 2-aminobenzoylvalylalanylnorleucylseryl-(3-nitro)tyrosinyl aspartamide.
Test compounds were dissolved in dry DMSO and maintained at 4° C. as stock solutions until being diluted for use in screening assays. Final concentration of DMSO in all enzymatic assays was 0.5% v/v.
Reaction mixtures were assembled in a 96-well plate format (Perkin Elmer Optiplate 96F, Perkin Elmer LAS, Seer Green, Buckinghamshire, UK) using a Perkin Elmer MultiPROBE II Plus HTS EX robot with Gripper attachment. […] Dithiothreitol (DTT, 10 μL/well, 1 mM final concentration) was then added together with 10 μL of Der p 1 dissolved at 2.5 μg/mL in reaction buffer supplemented with 1 mM DTT. […] The plate was immediately transferred to a fluorescence plate reader (Perkin Elmer Fusion Alpha-FP or Perkin Elmer Envision) equipped with a temperature-controlled carrier set at 30° C. and the reaction followed by excitation/emission at 330/420 nm.
Inhibitory activity was analysed from progress curves of reactions in the presence of a range of inhibitor concentrations.
Initial velocity in each well was converted to fractional activity by Equation 1: Fractional activity=(Initial rate at inhibitor concentration[X]/Initial rate at inhibitor concentration zero)*100 Equation 1:
Then, IC50 was determined by fitting the data of fractional activity and inhibitor concentration to a 4-parameter logistic curve, using Equation 2: V=Vmin+[Vmax−Vmin]/[1+(X/IC50)Hillslope] […] Biological Data—Der p 1 Enzyme Assay

Protein sequences, listed by entry. Tags and fused reporters are not part of them. Residues count along the entry.
UniProt P08176, 99-320: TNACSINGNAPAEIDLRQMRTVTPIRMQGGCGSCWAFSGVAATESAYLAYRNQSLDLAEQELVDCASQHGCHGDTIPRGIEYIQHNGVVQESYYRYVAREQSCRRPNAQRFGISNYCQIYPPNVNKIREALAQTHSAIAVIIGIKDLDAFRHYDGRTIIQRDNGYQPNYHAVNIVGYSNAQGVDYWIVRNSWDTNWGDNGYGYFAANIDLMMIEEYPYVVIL

The mark [1] stands for this setting: threshold stated in text, read-out: Der p 1 IC50.

Here are results for three compounds from US8541363B2, “Pyruvamide compounds as inhibitors of dust mite group 1 peptidase allergen and their use” (St George's Hosptial Medical School, priority 2010, dated 2013).

Where two headings read alike, the source gives them in different places.

In general, IC50 refers to the concentration that inhibits the measured activity by half.

Regarding `CC(C)[C@H](NC(=O)[C@H](C)NC(=O)[C@H](Cc1ccccc1)NC(=O)c1ccccc1)C(=O)C(=O)NCC(=O)N1CC[N+](C)(C)CC1` [PVA-096], where the note is “Der p 1 IC50”, the 50% inhibitory concentration (IC50) is below 20 nM.
For `CC(C)[C@H](NC(=O)[C@H](C)NC(=O)[C@@H](NC(=O)c1ccccc1)C(C)(C)C)C(=O)C(=O)NCc1ccccc1` [PVA-097], under setting [1], the IC50 was below 20 nM.
Still for that read-out and setting: for `CC(C)[C@H](NC(=O)[C@H](C)NC(=O)[C@@H](NC(=O)C1CC[N+](C)(C)CC1)C(C)(C)C)C(=O)C(=O)NCc1ccccc1` [PVA-154] the value was below 20 nM.
